Data: patent publication US7371379B2, “Dosages for treatment with anti-ErbB2 antibodies” (Genentech, Inc., priority 1999, dated 2008)

Legend:
[1] = system: human breast cancer; experiment: subsequent human study, 8 mg/kg load:4 mg/kg weekly; assay type: in vivo; settings: 8 mg/kg load:4 mg/kg weekly maintenance, preliminary human study
Method: In a subsequent, similarly designed study, human breast cancer patients were treated with a loading dose of 8 mg/kg followed by maintenance doses of4 mg/kg weekly.

[2] = system: BT-474M1; experiment: nude mouse xenograft tumor volume, i.v. bolus versus s.c. bolus (Example 4); assay type: in vivo; settings: for Tumor Vol. Day 6, mm^3: initial measurement before first dose; for Day 6-Day 31 Area Under Curve Tumor Vol., mm^3: Day 17 excluded
Method: (§1) This study was set up as disclosed herein in Example 3 for the comparison of intravenous bolus and subcutaneous infusion delivery. A sustained release estrogen implant was inserted subcutaneously one day before tumor cell innoculation as described in Example 3. Six days after tumor cell innoculation, the initial tumor measurement was performed. […] Animals were dosed once weekly for 4 weeks.
(§2) The mice were treated according to the information in Table 4 and using the techniques disclosed in Example 3. […] The control E25 antibody serum concentration was determined according to standard immunoassay techniques.
For this study, efficacy was measured as a decrease in tumor volume. Tumor volume was measured twice weekly.

[3] = system: ErbB2 over-expressing metastatic breast cancer; experiment: planned study of HERCEPTIN every three weeks with paclitaxel (Example 6); assay type: in vivo, human; settings: 8 mg/kg then 6 mg/kg every 3 weeks with paclitaxel 175 mg/m^2 every 3 weeks
Method: After the first 12 patients the PK parameters will be assessed, if exposure is felt inadequate, then the dose will be increased to 8 mg/kg every three weeks for the remaining 12 patients.
Inclusion Criteria • 1) Females24 18 years of age • 2) Histologically confirmed ErbB2 over-expressing metastatic breast cancer • 3) Patients who have been newly diagnosed with metastatic disease • 4) Have a Karnofsky performance status of 24 70% • 5) Give written informed consent prior to any study specific screening procedures with the understanding that the patient has the right to withdraw from the study at any time, without prejudice. […]

[4] = system: BT-474 human breast adenocarcinoma cells; settings: nude mice injected with BT-474 cells; cited from earlier work
[5] = serum antibody concentration in xenograft mice (Example 4); assay type: in vivo, mouse
Method: as §1, §2

[6] = HERCEPTIN serum concentration in patients (Example 2); assay type: in vivo, human
[7] = system: BT-474M1; experiment: nude mouse xenograft tumor volume, i.v. bolus versus s.c. infusion (Example 3); assay type: in vivo
Method: A study in a nude mouse xenograft model, which incorporates a human breast cancer cell line that naturally overexpresses the HER2 gene (BT-474M1, derived from BT-474 cells, ATCC Accession number HTB-20), comparing tumor volume as a function of i.v. bolus versus s.c. infusion was performed as follows. In the first study athymic nude nu nu 7-9 week old female mice were obtained from Taconic Inc (Germantown, N.Y.). To initiate tumor development, each mouse was inoculated subcutaneously with 3×10^6 BT474M1 cells suspended in Matrigel™. When tumor nodules reached a volume of approximately 100 mm^3, animals were randomized to 4 treatment groups. The groups were treated according to Table 3.
The study groups were treated until day 35.

HERCEPTIN: recombinant humanized anti-ErbB2 monoclonal antibody, a humanized version of the murine anti-ErbB2 antibody 4D5
tumor volume in the patients [1]: efficacious in reducing tumor volume | Tumor Vol. Day 6, mm^3 ([2]; Group 2, IV, LD 2, MD 1 mg/kg): 297 mm^3 | Tumor Vol. Day 28, mm^3 ([2]; Group 2, IV, MD 1 mg/kg): 175 mm^3 | Tumor Vol. Day 31, mm^3 ([2]; Group 2, IV, MD 1 mg/kg): 151 mm^3 | Day 6-Day 31 Area Under Curve Tumor Vol., mm^3 ([2]; Group 2, IV, MD 1 mg/kg): 4690 mm^3 | Tumor Vol. Day 6, mm^3 ([2]; Group 3, IV, LD 4, MD 2 mg/kg): 269 mm^3 | Tumor Vol. Day 28, mm^3 ([2]; Group 3, IV, MD 2 mg/kg): 75.7 mm^3 | Tumor Vol. Day 31, mm^3 ([2]; Group 3, IV, MD 2 mg/kg): 73.6 mm^3 | Day 6-Day 31 Area Under Curve Tumor Vol., mm^3 ([2]; Group 3, IV, MD 2 mg/kg): 3510 mm^3 | Tumor Vol. Day 6, mm^3 ([2]; Group 4, IV, LD 8, MD 4 mg/kg): 272 mm^3 | Tumor Vol. Day 28, mm^3 ([2]; Group 4, IV, MD 4 mg/kg): 25.3 mm^3 | Tumor Vol. Day 31, mm^3 ([2]; Group 4, IV, MD 4 mg/kg): 25.8 mm^3 | Day 6-Day 31 Area Under Curve Tumor Vol., mm^3 ([2]; Group 4, IV, MD 4 mg/kg): 2880 mm^3 | Tumor Vol. Day 6, mm^3 ([2]; Group 5, SC, LD 4, MD 2 mg/kg): 268 mm^3 | Tumor Vol. Day 28, mm^3 ([2]; Group 5, SC, MD 2 mg/kg): 76.2 mm^3 | Day 6-Day 31 Area Under Curve Tumor Vol., mm^3 ([2]; Group 5, SC, MD 2 mg/kg): 3230 mm^3 | efficacy of subcutaneous bolus versus intravenous bolus dosing ([2]; mouse, in vivo): dosing by subcutaneous bolus was as effective as intravenous bolus dosing | treatment of metastatic breast cancer [3]: will be effective in treating metastatic breast cancer | activity of chemotherapy against breast cancer xenografts [4]: enhance the activity of paclitaxel (TAXOL®) and doxorubicin | Serum Concentration, Mean ([5]; Group 2, IV, MD 1 mg/kg, Day 0): 0 ng/mL | Serum Concentration, Mean ([5]; Group 2, IV, MD 1 mg/kg, Day 7): 4960 ng/mL | Serum Concentration, Mean ([5]; Group 2, IV, MD 1 mg/kg, Day 14): 8550 ng/mL | Serum Concentration, Mean ([5]; Group 2, IV, MD 1 mg/kg, Day 21): 8050 ng/mL | Serum Concentration, Mean ([5]; Group 3, IV, MD 2 mg/kg, Day 0): 0 ng/mL | Serum Concentration, Mean ([5]; Group 3, IV, MD 2 mg/kg, Day 21): 22600 ng/mL | Serum Concentration, Mean ([5]; Group 4, IV, MD 4 mg/kg, Day 0): 0 ng/mL | Serum Concentration, Mean ([5]; Group 4, IV, MD 4 mg/kg, Day 7): 29600 ng/mL | Serum Concentration, Mean ([5]; Group 4, IV, MD 4 mg/kg, Day 21): 46200 ng/mL | Serum Concentration, Mean ([5]; Group 5, SC, MD 2 mg/kg, Day 0): 0 ng/mL | Serum Concentration, Mean ([5]; Group 5, SC, MD 2 mg/kg, Day 14): 16900 ng/mL | trough serum concentration, mean ([6]; Week 2, patients with 2+ HER2 overexpression): 28.8 µg/mL | trough serum concentration, mean ([6]; Week 2, patients with 3+ HER2 overexpression): 24.1 µg/mL | trough serum concentration, mean ([6]; Week 2, patients with superficial disease): 34.1 µg/mL | trough serum concentration, mean ([6]; Week 2, patients with visceral disease): 24.4 µg/mL | trough serum concentration (mean±SD) ([6]; average troughs of Weeks 7 and 8, responders): 60 ± 20 µg/mL | Peak serum concentration, Maximum ([6]; dose number 1): 274.6 µg/mL | Peak serum concentration, Minimun ([6]; dose number 1): 30.7 µg/mL | Trough serum concentration, Maximum ([6]; dose number 1): 60.7 µg/mL | Trough serum concentration, Minimun ([6]; dose number 1): 0.16 µg/mL | Peak serum concentration, Maximum ([6]; dose number 2): 307.9 µg/mL | Peak serum concentration, Mean ([6]; dose number 2): 74.3 µg/mL | Peak serum concentration, Minimun ([6]; dose number 2): 20.8 µg/mL | Trough serum concentration, Maximum ([6]; dose number 2): 74.4 µg/mL | Trough serum concentration, Minimun ([6]; dose number 2): 0.2 µg/mL | Peak serum concentration, Maximum ([6]; dose number 3): 194.8 µg/mL | Peak serum concentration, Mean ([6]; dose number 3): 75.3 µg/mL | Peak serum concentration, Minimun ([6]; dose number 3): 16.1 µg/mL | Trough serum concentration, Minimun ([6]; dose number 3): 0.2 µg/mL | Peak serum concentration, Maximum ([6]; dose number 4): 167 µg/mL | Peak serum concentration, Mean ([6]; dose number 4): 80.2 µg/mL | Trough serum concentration, Maximum ([6]; dose number 4): 89.4 µg/mL | Trough serum concentration, Minimun ([6]; dose number 4): 0.2 µg/mL | trough serum concentration, mean ([6]; dose number 4): 38.6 µg/mL | Peak serum concentration, Maximum ([6]; dose number 5): 185.8 µg/mL | Peak serum concentration, Mean ([6]; dose number 5): 85.9 µg/mL | Peak serum concentration, Minimun ([6]; dose number 5): 27.8 µg/mL | Trough serum concentration, Maximum ([6]; dose number 5): 148.7 µg/mL | Trough serum concentration, Minimun ([6]; dose number 5): 0.2 µg/mL | trough serum concentration, mean ([6]; dose number 5): 42.1 µg/mL | Peak serum concentration, Maximum ([6]; dose number 6): 218.1 µg/mL | Peak serum concentration, Mean ([6]; dose number 6): 87.2 µg/mL | Trough serum concentration, Minimun ([6]; dose number 6): 0.2 µg/mL | trough serum concentration, mean ([6]; dose number 6): 43.2 µg/mL | Peak serum concentration, Maximum ([6]; dose number 7): 187.8 µg/mL | Peak serum concentration, Mean ([6]; dose number 7): 89.7 µg/mL | Peak serum concentration, Minimun ([6]; dose number 7): 16.3 µg/mL | Trough serum concentration, Minimun ([6]; dose number 7): 0.2 µg/mL | trough serum concentration, mean ([6]; dose number 7): 48.8 µg/mL | Peak serum concentration, Maximum ([6]; dose number 8): 295.6 µg/mL | Peak serum concentration, Minimun ([6]; dose number 8): 11.4 µg/mL | growth of the tumors ([7]; BT474M1 tumor-bearing mice, all dosage methods, relative to control group): significantly inhibited the growth of the tumors | Tumor Volume (area under curve) Day 6-Day 35 ([7]; i.v. bolus, 4.0 mg/kg LD, 2.0 mg/kg/week MD): 2150 ± 1480 | Tumor Volume (mm^3), Day 35 ([7]; i.v. bolus, 4.0 mg/kg Loading Dose and 2.0 mg/kg/week Maintenance Dose): 49.7 ± 95.7 mm^3 | efficacy of subcutaneous infusion versus intravenous bolus dosing ([7]; mouse, in vivo): dosing by subcutaneous infusion was as effective as intravenous bolus dosing | Tumor Volume (area under curve) Day 6-Day 35 ([7]; s.c. infusion (high dose)): 1440 ± 1140 | Tumor Volume (mm^3), Day 35 ([7]; s.c. infusion (high dose), IV LD 6.25 mg/kg, infusate 1.00 mg/ml): 31 ± 75.6 mm^3 | Tumor Volume (area under curve) Day 6-Day 35 ([7]; s.c. infusion (low dose)): 1610 ± 1250 | Tumor Volume (mm^3), Day 35 ([7]; s.c. infusion (low dose), IV LD 0.313 mg/kg, infusate 0.050 mg/ml): 80.6 ± 158 mm^3
